{
  "source": "patent US10836796B2",
  "about": "“Derivatives of amanita toxins and their conjugation to a cell binding molecule” (Hangzhou DAC Biotech Co., Ltd., priority 2016, dated 2020)",
  "system": "human gastric carcinoma N-87 cell line tumor xenograft",
  "test": "Antitumor activity in vivo, N-87 tumor xenograft model",
  "set-up": "species or system BALB/c Nude mice",
  "conditions": "6 mg/Kg i.v., one injection",
  "method": "The first group of mice served as the control group and was treated with the phosphate-buffered saline vehicle. […] The weight of the animals was also measured at the same time. A mouse was sacrificed when any one of the following criteria was met: (1) loss of body weight of more than 20% from pretreatment weight, (2) tumor volume larger than 1500 mm^3, (3) too sick to reach food and water, or (4) skin necrosis. A mouse was considered to be tumor-free if no tumor was palpable.",
  "data": [
    {"substance": "T-DM1: Trastuzumab-DM1, antibody conjugated with maytansine derivative DM1; comparator conjugate [reference compound]", "values": [
      {"measurement": "duration of tumor growth inhibition", "result": 37, "unit": "days"},
      {"measurement": "elimination / eradication of the tumors", "result": "not able to eliminate the tumors completely"}
    ]}
  ]
}
